We go through six compounds from ChEMBL document CHEMBL1821631, “A novel binding assay identifies high affinity ligands to the rosiglitazone binding site of mitoNEET” (Bioorg Med Chem Lett, 2011).

In the assay the target is T1, CDGSH iron-sulfur domain-containing protein 1 (Homo sapiens, UniProt Q9NZ45).
T1 sequence (Q9NZ45 whole entry): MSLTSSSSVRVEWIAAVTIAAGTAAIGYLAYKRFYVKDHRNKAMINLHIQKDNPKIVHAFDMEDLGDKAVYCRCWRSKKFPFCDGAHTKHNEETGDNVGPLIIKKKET
Nature of the assay: Displacement of [3H]-rosiglitazone from human recombinant C-terminal His-tagged cytosolic domain of mitoNEET (32-108) by scintillation proximity assay. For orientation: In a radioligand displacement assay an active substance lowers the binding of a labelled ligand.

By IC50 is commonly meant the concentration needed to halve the response being measured. As for `CN1C(=O)/C(=C\c2ccc(Cl)cc2)SC1=S`, the IC50 was found to be 4.98 µM.

On to `CCCN1C(=O)S/C(=C/c2ccncc2)C1=O`, for which the IC50 amounted to 19.4 µM.

Take `CN1C(=O)/C(=C\c2ccccc2)SC1=S`: the IC50 amounted to 15.1 µM. As for `O=C1NC(=O)/C(=C\c2cccc(Br)c2)S1`, the figure is 0.86 µM; as for `O=C(O)CCN1C(=O)/C(=C\c2ccccc2)SC1=S`, 9.63 µM. With `O=C1NC(=O)/C(=C\c2ccncc2)S1` the figure was 22.3 µM.
